# Measured affinities in a library of Ab-14 heavy chain variants

The target is the same throughout: PDVDLGDISGINAS, from the HR2 region of SARS-CoV-2 spike.

Ab-14 is the parent antibody, in scFv form: VH, then a (GGGGS)3 linker, then VL. The light chain is unchanged in all variants.
VH: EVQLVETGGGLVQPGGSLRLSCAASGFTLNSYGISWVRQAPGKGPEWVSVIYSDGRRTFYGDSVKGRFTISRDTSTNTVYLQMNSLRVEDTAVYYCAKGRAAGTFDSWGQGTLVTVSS
VL: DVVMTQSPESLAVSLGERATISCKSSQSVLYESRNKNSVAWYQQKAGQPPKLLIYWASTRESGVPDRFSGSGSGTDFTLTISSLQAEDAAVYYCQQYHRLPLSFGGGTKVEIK

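The starting antibody came from a phage panning campaign against this peptide. The library (AAYL49) carries one to three amino acid substitutions per variant, with no insertions or deletions. Affinity was read by AlphaSeq, a pooled yeast mating assay with surface-displayed partners. The frequency of each diploid, read from paired DNA barcodes, reflects how well the two displayed proteins bind. Each replicate has its own calibration line, from reference interactions of the BCL2 family. Mating was done three times.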

Each variant is given by its three heavy chain CDRs, as the data file delimits them; those of the parent are GFTLNSYGIS, VIYSDGRRTFYGDSVK, GRAAGTFDS. Every variant below is changed at D106 of the VH (sequential numbering). Values are log10 of the apparent Kd in nM; lower means stronger binding. Replicates are averaged; those with no signal do not enter the mean. "nd" marks a missing value. The strain was present, yet no cells mated with the target were sequenced in any replicate, which points to weak or no binding. Background: pairings of library AAYL49 with three empty control strains gave a value in 15% of cases (median 4.06, 5th percentile 2.83). Values in that range, when seen in few replicates, are hard to tell from nonspecific mating.

With GFILNSYGIS | VIYTDGRRTFYGDSVK | GRAAGTFRS the result was 5.40 (1 of 3 replicates). Variant GFTLNSYGIS | VNYSDGRRTFYGDYVK | GRAAGTFLS gave nd (0 of 3 replicates). With GFTLNSYGIS | VIYSDGRRTFYGDSVK | GRAAGTFLS the result was 5.63 (1 of 3 replicates). With GFTLNSYGIS | VIYSDIRRTFYGDSVK | GRAAGTFSS the result was nd (0 of 3 replicates). For GFTLNSYGIS | VIYSHGRRTFYNDSVK | GRAAGTFFS, the assay gave nd (0 of 3 replicates). For GFTLNSYGIS | VIYSDGRRTGYGDSVK | GRAAGAFYS, the assay gave 1.44 (3 of 3 replicates). Variant GFTLNSYGIS | VIYSDCRRTFYGDSVK | GRAAGTFMS showed nd (0 of 3 replicates).

With GFTLNYYGIS | VIKSDGRRTFYGDSVK | GRAAGTFWS the result was 4.70 (1 of 3 replicates). Variant GFTLNSYGIP | VIYSDGRRTFYVDSVK | GRAAGTFVS showed nd (0 of 3 replicates). For GFTLNSYGIS | VIYSDGRRTPYGDSVK | GRAAGTFPS, the assay gave 4.08 (1 of 3 replicates). Variant GFDLNSYGIS | VIYSDGRRTWYGDSVK | GRAAGTFRS gave nd (0 of 3 replicates). For LFTLNSYGIS | VIYSDGRRTGYGDSVK | GRAAGTFYS, the assay gave nd (0 of 3 replicates). For GFTLNSYGIS | VIYSTGRRTMYGDSVK | GRAAGTFTS, the assay gave nd (0 of 3 replicates). For GFSLNSYGIS | VIVSDGRRTFYGDSVK | GRAAGTFMS, the assay gave nd (0 of 3 replicates).

With GFTLNSYGIV | VIYSDGRRTFYGDSVK | GRAAGTFPS the result was 4.66 (1 of 3 replicates). Variant GFTGNSYGIS | VVYSDGRRTFYGDSVK | GRAAGTFPS gave 5.42 (1 of 3 replicates). Variant GFTFNSYGIS | VIYSDGRRTFYGDSVK | GRAAGTFKS showed 3.04 (3 of 3 replicates). Variant GFDLNSYGIS | VIYSDGRRTFYGDSVK | GRAARTFPS showed nd (0 of 3 replicates). For GFTLNSYGIS | VIYSDGRRTMYGDSVK | GRAAGTFAV, the assay gave 1.14 (3 of 3 replicates). Variant GFTLNSYGIS | VIYSDGRVTFYGDSVK | GRAEGTFGS showed nd (0 of 3 replicates). For GFTLNSYGIS | VIYSDGSRTFYGDSVK | GRAAGTHMS, the assay gave 2.48 (3 of 3 replicates).

Variant GFTLNSYGIS | VIYSDGRRTFYGDSYK | GRAAGTFWS showed 2.94 (2 of 3 replicates). For GFKLNSYGIS | VIYSDGRRTFYGDSVK | GRAAGTMFS, the assay gave nd (0 of 3 replicates). Variant GFTLNSYGIS | VIYSPGRRTFYGDSVK | GRAAGTFVS showed nd (0 of 3 replicates). With GFTLNSYGIS | VIYSDFRRTFYGDSVK | GRAAGTFHS the result was 3.97 (1 of 3 replicates). For GFTLNSYGIS | PIYSDGRRVFYGDSVK | GRAAGTFKS, the assay gave nd (0 of 3 replicates). Variant GFTQNSYGIS | VIYSDGRRTFYGDSVK | WRAAGTFLS gave nd (0 of 3 replicates). Variant GFTLNSYGIS | VIYSDGRRTFYGDSTK | GRAAGTFPS showed 3.43 (1 of 3 replicates).

For GFTLNSYGIS | VIYSDGRRTFYGDSVK | GRAAGHAGS, the assay gave 2.69 (3 of 3 replicates). Variant GFTLNSYGIS | VIYSDRRRTFDGDSVK | GRAAGTFGS gave 4.66 (2 of 3 replicates). Variant GFTLNSYGIS | VIYSFGRRTFYGDSVK | GRAAGTFYS showed nd (0 of 3 replicates). Variant GFTLNSYGES | VIYSDGRRIFYGDSVK | GRAAGTFRS gave nd (0 of 3 replicates). Variant GFTLGSYGIS | VIYSDGRRTFYGDSVK | GQAAGTFMS gave nd (0 of 3 replicates). For PSTLNSYGIS | VIYSDGRRTFYGDSVK | GRAAGTFFS, the assay gave 1.81 (3 of 3 replicates).

From the list, the first 5 with no signal in any replicate:

Variant GFTLNSYGIS | VNYSDGRRTFYGDYVK | GRAAGTFLS gave nd (0 of 3 replicates).
Variant GFTLNSYGIS | VIYSDIRRTFYGDSVK | GRAAGTFSS gave nd (0 of 3 replicates).
Variant GFTLNSYGIS | VIYSHGRRTFYNDSVK | GRAAGTFFS gave nd (0 of 3 replicates).
Variant GFTLNSYGIS | VIYSDCRRTFYGDSVK | GRAAGTFMS gave nd (0 of 3 replicates).
Variant GFTLNSYGIP | VIYSDGRRTFYVDSVK | GRAAGTFVS gave nd (0 of 3 replicates).

Source: Engelhart et al. 2022 (doi:10.1038/s41597-022-01779-4), MIT Lincoln Laboratory and A-Alpha Bio; data file from the FLAb repository.